# Reference: publication PMC3361267 (Journal of Medicinal Chemistry, 2012)
# Chains of the proteins cited; added tags and fusions are not shown. Lines headed by an entry give the natural chain unless they say otherwise; changes in a name come on top.
# UniProt Q9NPD5: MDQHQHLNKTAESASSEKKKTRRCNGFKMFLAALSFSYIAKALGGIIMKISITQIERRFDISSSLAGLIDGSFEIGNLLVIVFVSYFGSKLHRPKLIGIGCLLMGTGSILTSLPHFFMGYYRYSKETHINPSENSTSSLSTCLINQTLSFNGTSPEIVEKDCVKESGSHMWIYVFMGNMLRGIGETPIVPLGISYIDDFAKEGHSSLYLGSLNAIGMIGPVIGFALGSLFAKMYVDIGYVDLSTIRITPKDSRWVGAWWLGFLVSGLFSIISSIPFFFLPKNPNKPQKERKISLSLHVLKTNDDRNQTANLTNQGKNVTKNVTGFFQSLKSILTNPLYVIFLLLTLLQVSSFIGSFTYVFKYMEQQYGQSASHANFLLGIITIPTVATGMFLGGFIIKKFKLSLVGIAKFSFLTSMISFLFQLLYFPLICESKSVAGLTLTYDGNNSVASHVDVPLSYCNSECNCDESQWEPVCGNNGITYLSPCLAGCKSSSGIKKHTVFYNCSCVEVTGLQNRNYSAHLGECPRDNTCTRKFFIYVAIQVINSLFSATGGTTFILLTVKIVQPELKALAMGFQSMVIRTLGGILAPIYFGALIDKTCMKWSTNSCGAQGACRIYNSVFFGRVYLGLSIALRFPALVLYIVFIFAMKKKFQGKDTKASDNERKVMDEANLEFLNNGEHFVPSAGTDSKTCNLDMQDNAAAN
# Molecular target: OATP1B3 (Homo sapiens, UniProt Q9NPD5)
row,SMILES,OATP1B3 Inhib %
1,C=C[C@H]1C[N@@]2CC[C@H]1C[C@H]2[C@H](O)c1ccnc2ccc(OC)cc12 [Quinine],-1.3%
2,C=C[C@H]1C[N@@]2CC[C@H]1C[C@@H]2[C@@H](O)c1ccnc2ccc(OC)cc12 [Quinidine],37.2%
